ChEMBL document CHEMBL1127434, “Discovery of nanomolar ligands for 7-transmembrane G-protein-coupled receptors from a diverse N-(substituted)glycine peptoid library” (J Med Chem, 1994)

Protein sequences, listed by entry. Tags and fused reporters are not part of them.
UniProt P33535, whole entry: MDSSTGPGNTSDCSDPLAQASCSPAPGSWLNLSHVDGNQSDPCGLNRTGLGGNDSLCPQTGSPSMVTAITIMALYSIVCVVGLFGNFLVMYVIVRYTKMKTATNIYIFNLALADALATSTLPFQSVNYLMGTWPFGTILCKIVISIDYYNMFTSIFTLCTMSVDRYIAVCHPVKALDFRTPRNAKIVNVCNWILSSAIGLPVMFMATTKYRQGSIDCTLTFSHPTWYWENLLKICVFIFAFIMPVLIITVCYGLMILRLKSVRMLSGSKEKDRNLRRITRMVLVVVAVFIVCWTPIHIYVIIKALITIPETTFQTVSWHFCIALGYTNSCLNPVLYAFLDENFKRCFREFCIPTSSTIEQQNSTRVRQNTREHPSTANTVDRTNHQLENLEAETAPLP

Target: Mu-type opioid receptor (Rattus norvegicus, UniProt P33535)

## C[C@@H](NC(=O)[C@@H](N)Cc1ccc(O)cc1)C(=O)NCC(=O)N(C)[C@@H](Cc1ccccc1)C(=O)NCCO [DAMGO]
  Ki: 4 nM
